ChEMBL document CHEMBL1155485, “Pyrimidine ribonucleotides with enhanced selectivity as P2Y(6) receptor agonists: novel 4-alkyloxyimino, (S)-methanocarba, and 5'-triphosphate gamma-ester modifications” (J Med Chem, 2010)

Amino acid sequences for entries named in this document (tags omitted). A change or cut given only in a name is not applied to a line headed by its entry.
UniProt Q15077: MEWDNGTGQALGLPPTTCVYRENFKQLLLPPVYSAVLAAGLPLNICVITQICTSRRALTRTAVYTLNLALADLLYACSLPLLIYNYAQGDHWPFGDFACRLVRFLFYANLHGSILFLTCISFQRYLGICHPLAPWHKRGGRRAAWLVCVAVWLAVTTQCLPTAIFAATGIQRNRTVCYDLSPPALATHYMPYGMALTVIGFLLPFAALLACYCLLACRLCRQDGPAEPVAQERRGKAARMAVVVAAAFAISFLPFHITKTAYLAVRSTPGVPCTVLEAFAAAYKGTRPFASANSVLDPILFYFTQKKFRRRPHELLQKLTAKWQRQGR

Biological target: P2Y purinoceptor 6 (Homo sapiens, UniProt Q15077)
Assay: Agonist activity at human recombinant P2Y6 receptor expressed in human 1321N1 cells assessed as [3H]inositol phosphate production up to 10 uM by scintillation proximity assay
Type: functional, cell-based
Method in brief: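 Human 1321N1 astrocytoma cells stably expressing the human P2Y2 or P2Y6 receptor, seeded at 20,000 cells/well two days before assay. Inositol lipids labelled for 16 h with 1.0 μCi myo-[3H]inositol in serum-free, inositol-free DMEM. Agonist added in HEPES pH 7.3/HBSS with LiCl, 30 min at 37°C. Stopped with ice-cold 50 mM formic acid; [3H]inositol phosphates counted by scintillation proximity assay. Triplicates.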

Activity: < 50%
SMILES: O=c1ccn([C@@H]2O[C@H](COP(=O)(O)OP(=O)(O)OP(=O)(O)O)[C@@H](O)[C@H]2O)c(=O)[nH]1 [URIDINE TRIPHOSPHATE]
